{
  "source": "patent US10485854B2",
  "about": "“Method of reducing biofilms” (Lysando AG, priority 2010, dated 2019)",
  "key": {"Pseudomonas putida G1": {"test_system": "Pseudomonas putida G1", "assay_type": "cell-based", "conditions": "0.5 mM EDTA, no endolysin"}, "Escherichia coli WK6": {"test_system": "Escherichia coli WK6", "assay_type": "cell-based", "conditions": "0.5 mM EDTA, no endolysin"}},
  "note": "Where two headings read alike, the source gives them in different places.",
  "data": [
    {"smiles": "O=C([O-])CN(CCN(CC(=O)[O-])CC(=O)O)CC(=O)O.[Na+].[Na+]", "note": "[EDTA, reference compound]", "values": [
      {"measurement": "antibacterial activity as the relative inactivation in logarithmic units (log10N0/Ni)", "setting": "Pseudomonas putida G1; 30 minutes (Table 12)", "value": "0.072 +/− 0.084 logarithmic units"},
      {"measurement": "antibacterial activity as the relative inactivation in logarithmic units (log10N0/Ni)", "setting": "Pseudomonas putida G1; 30 minutes (Table 15)", "value": "0.412 +/− 0.055 logarithmic units"},
      {"measurement": "antibacterial activity as the relative inactivation in logarithmic units (log10N0/Ni)", "setting": "Escherichia coli WK6; 30 minutes (Table 10)", "value": "0.393 +/− 0.035 logarithmic units"},
      {"measurement": "antibacterial activity as the relative inactivation in logarithmic units (log10N0/Ni)", "setting": "Escherichia coli WK6; 30 minutes (Table 12)", "value": "0.153 +/− 0.046 logarithmic units"},
      {"measurement": "antibacterial activity as the relative inactivation in logarithmic units (log10N0/Ni)", "setting": "Escherichia coli WK6; 30 minutes (Table 15)", "value": "0.592 +/− 0.113 logarithmic units"}
    ]}
  ]
}
